NALP1 yeast inh: NALP1 inhibition. S. cerevisiae NALP1/ASC/caspase-1 growth, X-gal OD620, 72 h. inhibition, % at 10 µM. 0.61% of 280,000 active. AID 2071; in the data active = inhibition mostly above about 24%, no sharp cut-off; inactive = mostly below about 32%
MC4R antag cAMP: blocks human MC4R cAMP signaling; MC4R-expressing cells, MTII-stimulated cAMP, LANCE TR-FRET; inhibition, % at 6.5 µM; 0.48% of 360,000 active; P32245;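 active = inhibition above its plate's cutoff, the mean of tested wells on that plate plus 3 SD, cut at about 29% in these data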
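Material: U2OS-MC4R stable cell line | Reagent: Melanotan II challenge after compound preincubation | Doses: One concentration, 6.5 µM nominal | Incubation: 30-min compound preincubation, 1-h Melanotan II challenge, 1-h detection, room temperature | Signal: TR-FRET cAMP assay | Replicates: One well per compound, no replicates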
HDAC3 inh: inhibitors of human histone deacetylase 3; O15379; recombinant HDAC3, fluorogenic peptide/trypsin coupled, fluorescence; inhibition, % at 8.3 µM; 0.15% of 320,000 active; AID 2718; in the data active = inhibition above about 26%, passing the limit was not always enough; inconclusive = no clear call, values can overlap the other calls
ALR H2O2 inh: inhibitors of human sulfhydryl oxidase ALR. P55789. purified ALR, DTT oxidation, H2O2 HRP-luminol luminescence. inhibition, % (no concentration beside the values). hit rate 3.8% among 290,000;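 active means mean and each replicate at 75% or more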;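 further: stock transfer was 7.5 nL into about 7.5 µL; 0% = neutral wells and 100% = wells with inactivated enzyme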
MC4R barr agon: human MC4R agonism via beta-arrestin | P32245 | U2OS MC4R beta-arrestin complementation, luminescence; percent of melanotan II response, DMSO zero | activation, % at 8.9 µM | 0.98% of 360,000 active | AID 540308;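 active = activation above a per-plate cutoff, the mean activation of sample wells on that plate plus 3 SD, cut at about 8% in these data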
Yeast UUG start: modulators of start codon recognition fidelity in yeast; AID 602363; activity score, % at 18.7 µM; S. cerevisiae UUG-firefly luciferase reporter, luminescence/redox ratio; 0.13% of 350,000 active;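 active = replicate mean at a twofold rise or more, about +100% in these data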;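 note: firefly luciferase made from a UUG start codon reports start codon fidelity; reporter light over untreated wells divided by growth signal over untreated wells; some hits fall short of that in this replicate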
A number is an active result; - = inactive; ? = inconclusive; . = no result given. The list is not random: actives were taken first. Their share in the collection is about 4.2%.

SMILES	NALP1 yeast inh	MC4R antag cAMP	HDAC3 inh	ALR H2O2 inh	MC4R barr agon	Yeast UUG start
C[C@@H]1CN([C@@H](C)CO)S(=O)(=O)c2ccc(/C=C/c3ccccc3)cc2O[C@H]1CN(C)C(=O)c1ccccc1	.	.	.	.	.	-
COc1ccc(NC(=O)Nc2ccc3c(c2)C(=O)N([C@@H](C)CO)C[C@H](C)[C@H](CN(C)Cc2ccc4c(c2)OCO4)OCCCC[C@H](C)O3)cc1	.	.	.	.	.	-
Cc1noc(C)c1S(=O)(=O)Nc1ccc2c(c1)CC(=O)N([C@@H](C)CO)C[C@@H](C)[C@H](CN(C)C(=O)Nc1ccc3c(c1)OCO3)O2	.	.	.	.	.	-
CN(C)c1ccc(NC(=S)c2ccccn2)cc1	-	-	-	98	-	-
CC(=O)Oc1ccc2c(=O)c(Oc3ccccc3)c(C)oc2c1OC(C)=O	-	-	-	100	-	-
CC12CC3(C)CC(C)(C1)CC(C(=O)NC(=S)N1CCOCC1)(C2)C3	-	-	-	-	8.7	.
CCOc1ccc(S(=O)(=O)Nc2nc3ccccc3nc2N2CCN(C)CC2)cc1	-	-	-	-	-	-
CCOc1ccc(S(=O)(=O)Nc2nc3ccccc3nc2Cl)cc1	-	-	-	88	-	-
CCOC(=O)c1ccccc1NS(=O)(=O)c1ccc(OCC)cc1	30	-	-	-	-	-
CC(NC(=O)c1cccc(N(C)C)c1)c1ccc(-n2ccnc2)cc1 (stereo not given)	-	-	-	98	-	-
Cc1nn(-c2ccccc2)c2sc(-c3n[nH]c(=S)o3)cc12	-	-	-	98	-	-
Nc1ccc(Sc2ccccc2CC(=O)O)cc1	-	.	-	99	.	.
C[C@@H]1CCCCO[C@H](CN(C)C(=O)c2ccccc2)[C@@H](C)CN([C@@H](C)CO)C(=O)c2cc(NC(=O)Nc3ccc(F)cc3)ccc2O1	.	.	.	.	.	-
C#CCNc1cc(-c2ccccc2)nc2ncnn12	-	-	-	-	-	.
CC(=O)CSc1cc(-c2ccccc2)nc2ncnn12	.	-	?	98	-	.
COCCNC(=O)C[C@H]1CC[C@@H]2[C@H](COc3ccc(NC(=O)C4CCCC4)cc3C(=O)N2C)O1	.	.	.	.	.	-
CC1(C)CC2CC(C)(CN2Cc2c(O)ccc3ccccc23)C1 (stereo not given)	-	-	-	95	-	.
CCOC(=O)Cc1cc(=O)n2[nH]c(C)c(-c3ccc(Cl)cc3)c2n1	-	-	-	99	-	-
CCOC(=O)Cc1cc(=O)n2[nH]c(C)c(-c3ccc(OC)cc3)c2n1	-	-	-	91	-	-
C/C=C/c1cnc2c(c1)C(=O)N([C@H](C)CO)C[C@@H](C)[C@@H](CN(C)C(=O)Nc1c(C)noc1C)O2	.	.	.	.	.	-
O=C(O)c1ccc(COc2ccccc2/C=C2\NC(=O)N(Cc3ccccc3)C2=O)cc1	-	-	-	-	-	.
CCOc1cc(/C=C2\NC(=S)N(C)C2=O)ccc1OCc1ccc(C(=O)O)cc1	-	-	-	89	-	-
CCCN1C(=O)/C(=C/c2ccccc2OCc2ccc(C(=O)O)cc2)NC1=S	-	-	-	79	-	.
CN1C(=O)/C(=C/c2ccc(OCc3ccc(C(=O)O)cc3)c(Cl)c2)NC1=S	-	-	-	-	-	-
CCCN1C(=O)/C(=C/c2ccc(OCc3ccc(C(=O)O)cc3)c(OC)c2)NC1=S	.	-	-	92	-	-
SMILES	NALP1 yeast inh	MC4R antag cAMP	HDAC3 inh	ALR H2O2 inh	MC4R barr agon	Yeast UUG start
C[C@H](CO)N1C[C@H](C)[C@@H](CN(C)C(=O)Nc2ccc(F)cc2)Oc2ccc(NS(=O)(=O)c3ccccc3)cc2CC1=O	.	.	.	.	.	-
COc1ccc(CN(C)C[C@H]2OCCCC[C@H](C)Oc3ccc(NC(=O)Nc4cccc5ccccc45)cc3C(=O)N([C@H](C)CO)C[C@H]2C)cc1	.	.	.	.	.	-
COCCNC(=O)[C@H]1[C@H](CO)[C@H]2Cn3c(ccc(-c4ccccc4F)c3=O)[C@H]2N1C(=O)C1CC1	.	.	.	.	.	-
O=C(C[C@H]1C[C@@H]2c3cc(NC(=O)C4CCOCC4)ccc3O[C@@H]2[C@@H](CO)O1)NCc1cccc(F)c1	.	.	.	.	.	-
COc1cc(OC)c(N(C)C(=O)c2cn(C)c(=O)c3cc(OC)c(OC)cc23)cc1Cl	-	-	54	.	-	-
Cc1cc(NC(=O)c2cccs2)n(-c2ccccc2)n1	-	-	-	86	-	-
Cc1cc(Nc2ccccc2)n(-c2nc3ccccc3[nH]2)n1	-	-	-	-	-	-
Cc1cc(C)nc(-n2nc(C)cc2Nc2ccccc2)n1	-	-	-	98	-	.
Cc1cc(Nc2ccccc2)n(-c2ccccc2)n1	-	-	-	98	-	-
Cc1cc(Nc2nc(Cl)c(Cl)cc2Cl)n(-c2ccccc2)n1	.	-	-	-	-	-
C[C@@H](NC(=O)C[C@@H]1C=C[C@H](NC(=O)C2CCC2)[C@H](CO)O1)c1ccccc1	.	.	.	.	.	-
CC1=NN(C(N)=S)C(=O)C1N=Nc1ccc(O)cc1 (stereo not given)	-	-	.	.	-	-
CC1=NN(C(N)=S)C(=O)C1N=Nc1ccc([N+](=O)[O-])cc1 (stereo not given)	-	-	-	79	-	-
Cc1ccc(O)c(C2=NCCNC(C(F)(F)C(F)F)=C2)c1	-	-	-	99	-	-
FC(F)C(F)(F)C1=CC(c2ccccc2)=NCCN1	-	-	-	-	-	-
Oc1ccc(Cl)cc1C1=NCCNC(C(F)(F)C(F)F)=C1	-	-	-	99	-	-
COc1ccc(-c2cnc3c(c2)C(=O)N([C@H](C)CO)C[C@H](C)[C@H](CN(C)C(=O)C2CC2)O3)cc1	.	.	.	.	.	-
CCN1C(=O)/C(=C\N(C)C)c2ccccc21	-	-	-	.	-	-
CCN1C(=O)/C(=C/N(C)C)c2ccccc21	-	-	-	99	-	-
C[C@H]1CN([C@@H](C)CO)S(=O)(=O)c2ccc(C3=CCCCC3)cc2O[C@H]1CN(C)C(=O)C1CCCCC1	.	.	.	.	.	-
COC(=O)CSc1[nH]c(=O)cc(C)c1C#N	-	-	-	-	-	.
CCOC(=O)c1[nH]c(CN2CCN(c3ccc(OC)cc3)CC2)c(C(=O)OCC)c1C	-	-	-	-	-	-
CCOC(=O)c1cc(C#N)c(N2CCN(c3ccc(OC)cc3)CC2)[nH]c1=O	-	-	-	93	-	-
CCOC(=O)c1cc(C#N)c(SCC(=O)OC)[nH]c1=O	-	-	-	99	-	.
CCOC(=O)CCc1c(C)c2ccc(O)cc2oc1=O	.	-	-	81	-	-
NNC(=S)Nc1ccc(S(=O)(=O)N2CCOCC2)cc1	-	-	.	98	-	-
Nc1nnc(SCC(=O)Nc2ccc(S(=O)(=O)N3CCOCC3)cc2)s1	-	-	-	96	-	-
NNC(=S)Nc1ccc(S(=O)(=O)N2CCCCC2)cc1	.	-	.	-	-	.
Nc1nnc(SCC(=O)Nc2cc(S(=O)(=O)N3CCOCC3)ccc2Cl)s1	-	-	-	-	-	-
